This is an account of results in patent US20220000998A1, “BI-SPECIFIC CONJUGATES” (priority 2019, published 2022).

Series [1] in a line: Peptide tag stability in human plasma by LC-MS/MS. Particulars: 10 μM peptide, 37° C., up to 17 hours.
A short description of series [2]: Peptide tag stability in mouse plasma by LC-MS/MS. Particulars: 10 μM peptide, 37° C., up to 17 hours.

For the molecule `CC[C@H](C)[C@H](NC(=O)CN)C(=O)N[C@@H](CC(C)C)C(=O)N[C@@H](Cc1ccccc1)C(=O)N[C@@H](CC(C)C)C(=O)N[C@@H](CCC(N)=O)C(=O)N[C@@H](Cc1c[nH]c2ccccc12)C(=O)N[C@H](C(=O)N[C@@H](CCCNC(=N)N)C(=O)N[C@@H](CC(=O)O)C(=O)N[C@H](C(=O)N[C@H](C(=O)N[C@@H](CC(=O)O)C(=O)N[C@@H](CC(=O)O)C(=O)N[C@@H](Cc1ccccc1)C(=O)N[C@H](C(=O)N[C@@H](CC(N)=O)C(=O)N[C@@H](CCC(=O)O)C(=O)N[C@@H](CO)C(=O)N[C@@H](CO)C(=O)N[C@@H](CCC(N)=O)C(=O)N[C@@H](CCCCN)C(=O)O)[C@@H](C)O)[C@@H](C)CC)[C@@H](C)CC)C(C)C`, in series [1], the “t1/2 [h] in human plasma” value came to 45 h. For the same molecule, the “t1/2 [h] in mouse plasma” value in series [2] was 5.7 h.
In the same order, the values of `CC[C@H](C)[C@H](N)C(=O)N[C@@H](CC(=O)O)C(=O)N[C@H](C(=O)N[C@@H](CCCCN)C(=O)N[C@@H](CC(N)=O)C(=O)N[C@@H](CC(=O)O)C(=O)N[C@@H](CC(C)C)C(=O)N[C@@H](Cc1ccc(O)cc1)C(=O)N[C@@H](CCC(=O)O)C(=O)N[C@@H](CCCCN)C(=O)N[C@H](C(=O)N[C@@H](CC(C)C)C(=O)N[C@@H](CC(N)=O)C(=O)N[C@@H](CC(=O)O)C(=O)N[C@@H](Cc1ccc(O)cc1)C(=O)N[C@@H](CCCCN)C(=O)N[C@@H](C)C(=O)N[C@H](C(=O)N[C@@H](C)C(=O)N[C@@H](CC(N)=O)C(=O)N[C@@H](CCCCN)C(=O)N[C@@H](CC(C)C)C(=O)N[C@@H](CO)C(=O)N[C@@H](CCC(N)=O)C(=O)N[C@H](C(=O)O)C(C)C)[C@@H](C)CC)[C@@H](C)O)[C@@H](C)CC` are 14 h and 5.6 h.
